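Dose response: 5 concentrations. Exposure: 48 h. Format: 96-well plates. Endpoint: linear interpolation; highest concentration if not reached. At the GI50, growth is halved. TGI is the concentration that stops growth completely.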
Tests used:
Experiment in all cases: inhibition of tumour cell growth, NCI panel, 48 h; in the data active = GI50 below about 0.43 µM; inactive = the rest
HOP-92 NSCLC = test system: HOP-92 NSCLC
NCI-H226 lung = test system: NCI-H226 lung
NCI-H23 lung = test system: NCI-H23 lung
UACC-257 melanoma = test system: UACC-257 melanoma

OCC1OC(OCCO/N=C2/C(c3c(O)[nH]c4ccccc34)=Nc3ccccc32)C(O)C(O)C1O (stereo not drawn)
inactive: GI50 (HOP-92 NSCLC) 47.3 µM | GI50 (NCI-H226 lung) 1.25 µM | GI50 (NCI-H23 lung) 0.675 µM | GI50 (UACC-257 melanoma) > 100 µM
> 100 µM: TGI (HOP-92 NSCLC) | TGI (NCI-H226 lung) | TGI (NCI-H23 lung) | TGI (UACC-257 melanoma)
